Reference: PubChem BioAssay AID720543 (The Scripps Research Institute Molecular Screening Center, 2013)
This is a selection; strong and weak results do not stand in their true shares. The source made the active and inactive calls.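 How the source made its calls: active means inhibition exceeding the mean over every tested compound plus 3 SD (cut at about 30% in these data); inactive means the rest.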

Sequences of proteins named here, by UniProt entry; tags and fusion partners are left off.
UniProt Q8VD66, whole entry: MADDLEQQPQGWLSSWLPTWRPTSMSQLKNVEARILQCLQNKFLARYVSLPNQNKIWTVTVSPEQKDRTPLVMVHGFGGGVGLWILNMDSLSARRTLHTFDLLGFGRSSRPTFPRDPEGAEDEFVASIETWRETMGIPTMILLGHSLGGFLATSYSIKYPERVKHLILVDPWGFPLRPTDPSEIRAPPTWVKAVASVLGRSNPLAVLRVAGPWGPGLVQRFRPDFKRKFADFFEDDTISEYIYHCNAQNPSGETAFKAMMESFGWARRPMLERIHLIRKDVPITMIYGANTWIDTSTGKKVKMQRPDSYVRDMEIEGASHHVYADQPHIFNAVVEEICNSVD

These compounds were tested against (Lyso)-N-acylphosphatidylethanolamine lipase (Mus musculus) (UniProt Q8VD66) (assay: mouse ABHD4 hydrolase activity blockers – biochemical, fluorescence polarization, primary screen (AID 720543;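 further: 0% = plate median of compound wells and 100% = S159A mutant with DMSO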)). Settings: purified mABHD4, FP-Rh probe fluorescence polarization; at 8.92 µM; stronger effect = higher value.
In short: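 assay system = mABHD4 protein | compound dosing = single nominal dose of 8.92 µM, 0.89% DMSO final | read-out basis = percent inhibition of probe binding, normalized to plate controls | schedule = Enzyme–compound pre-incubation 45 min, then probe 60 min, both 25 °C | detection = fluorescence polarization, excitation 525 nm, emission 598 nm, BODIPY TMR filters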
In the case of `CN(C)C(=O)c1c([N+](=O)[O-])cc([N+](=O)[O-])cc1[N+](=O)[O-]`, the inhibition is reported as inactive: -1.97%.
With `CP(=O)(Nc1ccc(Cl)cc1)Oc1ccc(F)cc1` (stereo not drawn) the inhibition was inactive: -7.92%.
`CC(C)(C)c1ccc(OP(C)(=O)O)cc1` was tested, and the inhibition was inactive: 1.1%.
`COc1ccccc1OP(C)(=O)Nc1ccccc1Br` (stereo not drawn) was tested, and the inhibition was inactive: -0.79%.
`CCc1ccc(OP(C)(=O)Nc2cccnc2)cc1` (stereo not drawn) was tested, and the inhibition was inactive: 3.27%.
In the case of `CP(=O)(Oc1ccccc1)N1CCOC1=O` (stereo not drawn), the inhibition is reported as inactive: -0.89%.
With `O=C(OCCCN1CCCC1)C(O)(c1ccccc1)C1CCCCC1` (stereo not drawn) the inhibition was inactive: -6.49%.
With `COc1ccccc1OP(C)(=O)Nc1c(C)n(C)n(-c2ccccc2)c1=O` (stereo not drawn) the inhibition was inactive: 3.39%.
For `COc1ccc(OP(C)(=O)Nc2ccc(Br)cc2)cc1` (stereo not drawn), the inhibition was inactive: -7.1%.
In the case of `CCN(CC)CC(O)COC(=O)C(O)(c1ccccc1)C1CCCCC1` (stereo not drawn), the inhibition is reported as inactive: 7.05%.
With `CP(=O)(OC12CC3CC(CC(C3)C1)C2)OC12CC3CC(CC(C3)C1)C2` the inhibition was inactive: 14.6%.
With `CCOC(=O)c1ccc(NP(C)(=O)Oc2ccc(Cl)cc2)cc1` (stereo not drawn) the inhibition was inactive: -5.07%.
For `Nc1ccc2c(ccc3cccnc32)n1.O=[N+]([O-])c1cc([N+](=O)[O-])c(O)c([N+](=O)[O-])c1`, the inhibition was inactive: -0.02%.
In the case of `CP(=O)(OCCOc1ccccc1)OCCOc1ccccc1`, the inhibition is reported as inactive: -8.4%.
With `CP(=O)(Nc1ccc(Cl)cc1Cl)Oc1ccccc1` (stereo not drawn) the inhibition was inactive: -4.6%.
With `CCCCCCCCCCCCCCCC1C[N+](C)(C)CCOP(C)(=O)O1` (stereo not drawn) the inhibition was active: 32.2%.
For `COc1ccc(OP(C)(=O)Nc2ccccc2Br)cc1` (stereo not drawn), the inhibition was inactive: 8.76%.
`COc1ccccc1OP(C)(=O)Nc1ccc(C)c(C)c1` (stereo not drawn) was tested, and the inhibition was inactive: 4.52%.
In the case of `Cc1cc(C)cc(OP(C)(=O)Nc2cccc(C(F)(F)F)c2)c1` (stereo not drawn), the inhibition is reported as inactive: -1.77%.
For `O=C1C(O)=C([N+](=O)[O-])C(=O)C(O)=C1[N+](=O)[O-]`, the inhibition was inactive: 26.2%.
With `CCc1ccc(OP(C)(=O)O)cc1` the inhibition was inactive: 2.09%.
In the case of `COc1ccccc1OP(C)(=O)Nc1ccc(C)cc1C` (stereo not drawn), the inhibition is reported as inactive: 2.85%.
For `CP(=O)(Nc1ccccn1)Oc1ccccc1` (stereo not drawn), the inhibition was inactive: 0.24%.
`O=[N+]([O-])c1cc([N+](=O)[O-])c(Nc2ccccn2)c([N+](=O)[O-])c1` was tested, and the inhibition was inactive: -1.86%.
With `Cc1c(NP(C)(=O)Oc2ccc(C(C)C)cc2)c(=O)n(-c2ccccc2)n1C` (stereo not drawn) the inhibition was inactive: -4.92%.
`CN(C)CCOC(=O)C(O)(c1ccccc1)C1CCCC1` (stereo not drawn) was tested, and the inhibition was inactive: -4.52%.
With `COc1ccc(OP(C)(=O)Nc2ccccn2)cc1` (stereo not drawn) the inhibition was inactive: -3.32%.
In the case of `COc1ccccc1OP(C)(=O)Nc1ccc(Br)cc1` (stereo not drawn), the inhibition is reported as inactive: 2.54%.
